# Measurements from patent publication US20180325997A1.
# Molecular target: hTERT (human telomerase reverse transcriptase) (human) (UniProt O14746)
# Assay: cell-based or functional assay
substance,measurement,value
LRP::FLAG protein (LRP as per SEQ ID NO: 2 and FLAG as per SEQ ID NO: 3) (from UniProt P14206 1-295) (receptor),"relative telomerase activity (TRAPEZE kit, real time PCR) in transfected MRC 5 cells against non-transfected cells",98 % elevation
